The target in this data set is T1, cofactor factor Va of the prothrombinase complex (endogenous, in human plasma), P12259.
T1 chain 1: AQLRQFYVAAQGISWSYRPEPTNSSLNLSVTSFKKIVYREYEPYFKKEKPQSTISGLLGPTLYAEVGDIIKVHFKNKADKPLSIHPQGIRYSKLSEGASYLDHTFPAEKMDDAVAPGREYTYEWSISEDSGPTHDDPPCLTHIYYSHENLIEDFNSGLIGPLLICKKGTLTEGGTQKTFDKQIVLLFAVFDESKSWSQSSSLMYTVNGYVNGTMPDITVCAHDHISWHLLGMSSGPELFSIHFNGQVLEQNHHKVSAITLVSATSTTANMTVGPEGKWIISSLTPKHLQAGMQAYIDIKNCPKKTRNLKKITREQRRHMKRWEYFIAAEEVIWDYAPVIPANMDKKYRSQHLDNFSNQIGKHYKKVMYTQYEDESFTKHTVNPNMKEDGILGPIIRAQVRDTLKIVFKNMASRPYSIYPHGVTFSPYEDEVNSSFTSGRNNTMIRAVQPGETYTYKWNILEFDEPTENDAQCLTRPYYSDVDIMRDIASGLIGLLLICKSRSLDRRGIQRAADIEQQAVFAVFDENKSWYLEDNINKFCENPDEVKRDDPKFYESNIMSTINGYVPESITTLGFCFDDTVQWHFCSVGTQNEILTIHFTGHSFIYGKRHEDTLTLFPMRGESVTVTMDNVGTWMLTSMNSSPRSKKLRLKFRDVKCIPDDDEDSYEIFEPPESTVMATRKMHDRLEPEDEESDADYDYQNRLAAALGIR
T1 chain 2: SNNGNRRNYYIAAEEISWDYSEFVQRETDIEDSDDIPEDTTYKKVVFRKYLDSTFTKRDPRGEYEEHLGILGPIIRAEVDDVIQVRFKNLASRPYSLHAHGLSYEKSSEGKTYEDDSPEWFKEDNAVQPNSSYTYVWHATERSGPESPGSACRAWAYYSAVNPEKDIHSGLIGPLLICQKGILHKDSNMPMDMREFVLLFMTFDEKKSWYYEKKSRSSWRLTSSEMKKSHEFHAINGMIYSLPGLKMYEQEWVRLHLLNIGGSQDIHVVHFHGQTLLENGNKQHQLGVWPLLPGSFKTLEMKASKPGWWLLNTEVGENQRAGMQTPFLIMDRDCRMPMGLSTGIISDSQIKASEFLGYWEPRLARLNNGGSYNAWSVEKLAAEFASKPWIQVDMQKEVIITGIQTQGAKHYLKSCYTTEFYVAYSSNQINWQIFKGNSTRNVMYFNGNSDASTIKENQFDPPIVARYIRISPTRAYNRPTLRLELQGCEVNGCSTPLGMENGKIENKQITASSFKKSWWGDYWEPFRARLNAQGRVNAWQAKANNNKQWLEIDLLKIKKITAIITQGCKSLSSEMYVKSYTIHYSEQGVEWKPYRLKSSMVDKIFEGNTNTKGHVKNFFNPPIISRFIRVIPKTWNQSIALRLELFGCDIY

B1: EGR-Xa, active site inhibited full length human fXa (human plasma derived) (protein)
chain 1: ANSFLEEMKKGHLERECMEETCSYEEAREVFEDSDKTNEFWNKYKDGDQCETSPCQNQGKCKDGLGEYTCTCLEGFEGKNCELFTRKLCSLDNGDCDQFCHEEQNSVVCSCARGYTLADNGKACIPTGPYPCGKQTLER
chain 2: IVGGQECKDGECPWQALLINEENEGFCGGTILSEFYILTAAHCLYQAKRFKVRVGDRNTEQEEGGEAVHEVEVVIKHNRFTKETYDFDIAVLRLKTPITFRMNVAPACLPERDWAESTLMTQKTGIVSGFGRTHEKGRQSTRLKMLEVPYVDRNSCKLSSSFIITQNMFCAGYDTKQEDACQGDSGGPHVTRFKDTYFVTGIVSWGEGCARKGKYGIYTKVTAFLKWIDRSMKTRGLPKAKSHAPEVITSSPLK
With B1, the “prothrombinase activity measured by thrombin generation in human plasma (RFU)” value is reported as “IC50=26 nM”.

The record behind these values is US20180185459.
